Values quoted from earlier work as cited in patent US8747895B2, “Orally disintegrating tablets of atomoxetine” (priority 2004, dated 2014).

Settings: oral administration

For “(−)-N-Methyl-3-(o-tolyloxy)-propylamine hydrochloride [Atomoxetine]”, the elimination half-life is given as “about 5 hours”.
